Source: US20050228023A1, “Agonist and antagonist ligands of the nociceptin receptor” (published 2005)

The chains behind the UniProt entries cited, without tags or fusion partners. Where a name states a change or a piece, a line headed by the entry shows the natural chain unless it says otherwise.
UniProt P41146: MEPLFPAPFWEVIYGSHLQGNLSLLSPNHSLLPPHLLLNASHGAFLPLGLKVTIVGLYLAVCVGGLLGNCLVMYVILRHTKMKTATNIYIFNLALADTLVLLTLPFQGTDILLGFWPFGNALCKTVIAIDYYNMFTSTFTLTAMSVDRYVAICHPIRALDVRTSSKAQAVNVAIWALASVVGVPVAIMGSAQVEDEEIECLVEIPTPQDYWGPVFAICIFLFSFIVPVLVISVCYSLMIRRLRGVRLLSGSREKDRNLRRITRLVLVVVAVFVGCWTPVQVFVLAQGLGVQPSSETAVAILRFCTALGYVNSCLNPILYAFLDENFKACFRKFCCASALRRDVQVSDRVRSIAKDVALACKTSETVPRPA

Tests used:
ORL1 [1] = biological target: T1, ORL1 (Homo sapiens, UniProt P41146); assay: [35S]GTPγS binding functional activity and agonist/antagonist evaluation; settings: for LIGAND (agonist or antagonist): compared with dose response of full agonist N/OFQ; for EC50: read-out: Functional Activity ORL1 [35S]GTPγS EC50, cell membranes, 60 min at 25° C.; for Kb: read-out: Functional Activity ORL1 [35S]GTPγS Ke, Ke=[A]/(Dose ratio−1), antagonist, 60 min
ORL1 [2] = biological target: T1, ORL1; assay: ORL1 receptor binding, [3H]N/OFQ binding to membranes of transfected CHO cells; settings: CHO cell membranes transfected with human ORL1

## O=C1Cc2ccccc2N1C1CCN(C2C3CCCC2CCC3)CC1 (centres unmarked)
ORL1 [1]
  LIGAND (agonist or antagonist): agonist

## O=C1Cc2ccccc2N1C1CCN(C2CCCc3ccccc32)CC1 (centres unmarked)
ORL1 [2]
  Ki: 11.7 nM

## O=C1Cc2ccccc2N1C1CCN(C2CCCCCCC2)CC1
ORL1 [1]
  LIGAND (agonist or antagonist): agonist
  EC50: 19.9 nM
ORL1 [2]
  Ki: 1.39 nM

## O=C1Cc2ccccc2N1C1CCN(C2CCC3CCCCC3C2)CC1 (single isomer, unassigned)
ORL1 [1]
  LIGAND (agonist or antagonist): agonist

## O=C1Cc2ccccc2N1C1CCN(C2CCC3CCCCC3C2)CC1 (centres unmarked)
ORL1 [1]
  LIGAND (agonist or antagonist): agonist
  EC50: 16 nM
ORL1 [2]
  Ki: 5.64 nM

## CC1(C)[C@@H]2CC[C@@]1(C)[C@@H](N1CCC(N3C(=O)Cc4ccccc43)CC1)C2
ORL1 [2]
  Ki: > 10000 nM

## O=C1Cc2ccccc2N1C1CCN(CC2CCCCCCC2)CC1
ORL1 [1]
  LIGAND (agonist or antagonist): antagonist
  Kb: 15.3 nM
ORL1 [2]
  Ki: 6.04 nM

## O=C1Cc2ccccc2N1C1CCN(C2CCc3ccccc3C2)CC1 (centres unmarked)
ORL1 [1]
  LIGAND (agonist or antagonist): agonist
  EC50: 92.5 nM
ORL1 [2]
  Ki: 29.3 nM

## O=C1Cc2ccccc2N1C1CCN(Cc2ccccc2)CC1
ORL1 [1]
  LIGAND (agonist or antagonist): agonist
  EC50: 174 nM
ORL1 [2]
  Ki: 201 nM

## CC(c1ccc(C2CCCCC2)cc1)N1CCC(N2C(=O)Cc3ccccc32)CC1 (centres unmarked)
ORL1 [1]
  LIGAND (agonist or antagonist): antagonist
ORL1 [2]
  Ki: 253 nM

## O=C1Cc2ccccc2N1C1CCN(C2CCCC3CCCCC32)CC1 (centres unmarked)
ORL1 [1]
  LIGAND (agonist or antagonist): agonist
  EC50: 117 nM
ORL1 [2]
  Ki: 15.6 nM

## CC1(C)C2CCC(CN3CCC(N4C(=O)Cc5ccccc54)CC3)C1C2 (centres unmarked)
ORL1 [1]
  LIGAND (agonist or antagonist): antagonist
  Kb: 67.1 nM
ORL1 [2]
  Ki: 15.5 nM

## CC(c1ccc2c(c1)Cc1ccccc1-2)N1CCC(N2C(=O)Cc3ccccc32)CC1 (centres unmarked)
ORL1 [1]
  LIGAND (agonist or antagonist): antagonist
ORL1 [2]
  Ki: 135 nM
